# Data published in patent US10202593B2, “Evolved sortases and uses thereof” (President and Fellows of Harvard College, priority 2013, dated 2019).
# Biological target: T1, eSrtA + Btn-LAETGG (Staphylococcus aureus, UniProt Q2FV99, D160N/D165A/K190E/K196T/P94R)
# T1 construct: All expressed sortases lack the N-terminal 59 amino acids; expressed in transfected cells; host or cells: S. cerevisiae ICY200 (pCTCon2CTev vector)
# T1 sequence (Q2FV99 60-206 P94R/D160N/D165A/G167E/K190E/K196T): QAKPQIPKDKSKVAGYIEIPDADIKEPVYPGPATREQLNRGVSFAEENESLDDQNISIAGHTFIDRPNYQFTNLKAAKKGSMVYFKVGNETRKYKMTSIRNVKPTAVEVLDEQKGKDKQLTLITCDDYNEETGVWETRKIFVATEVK
# Test: Competitive negative screen on yeast displaying eSrtA (flow cytometry)
# Type: cell-based, S. aureus
# Details: 100 μM LPETG; 10 μM biotin-LAETG, 1 hour
# Description: FIG. 22 depicts the validation of a competitive negative screen for sortase specificity. ICY200 Yeast displaying eSrtA were induced overnight with SGR media, then incubated for one hour with 10 μM Btn-LAETGG (SEQ ID NO: 35) peptide and between 100 nM and 1 mM non-biotinylated LPETGG (SEQ ID NO: 36) peptide in TBS supplemented with 5 mM CaCl2. Cells were cleaved using TEV, labeled for expression and activity as described above, and assayed by flow cytometry.
# We incubated these cells with 10 μM biotin-LAETG (SEQ ID NO: 5) and a range of 100 nM to 1 mM non-biotinylated LPETG (SEQ ID NO: 4) for 1 hour (FIG. 22).
smiles,measurement,value
CC(C)C[C@H](N)C(=O)N1CCC[C@H]1C(=O)N[C@@H](CCC(=O)O)C(=O)N[C@H](C(=O)NCC(=O)NCC(=O)O)[C@@H](C)O [LPETG],inhibition of cell biotinylation,virtually complete inhibition
